Earlier results in patent US20170042890A1, “METHODS OF REDUCING DECLINE IN VITAL CAPACITY” (Cytokinetics, Inc., priority 2014, published 2017).

System: ALS
Conditions: Lacomblez 1996; cited from earlier work

In the case of `Nc1nc2ccc(OC(F)(F)F)cc2s1` [riluzole], the “Prolongation of survival or time to tracheostomy versus placebo” value is listed as 2-3 months.
